Laboratory results taken from patent US20240294526A1, “FUSED TRI-CYCLIC COMPOUND AS A PDE3/PDE4 DUAL INHIBITOR” (CHIA TAI TIANQING PHARMACEUTICAL GROUP CO., LTD., priority 2018, published 2024).

Protein sequences, listed by entry. Tags and fused reporters are not part of them. Residues count along the entry.
UniProt Q07343, 305-736 limits assumed: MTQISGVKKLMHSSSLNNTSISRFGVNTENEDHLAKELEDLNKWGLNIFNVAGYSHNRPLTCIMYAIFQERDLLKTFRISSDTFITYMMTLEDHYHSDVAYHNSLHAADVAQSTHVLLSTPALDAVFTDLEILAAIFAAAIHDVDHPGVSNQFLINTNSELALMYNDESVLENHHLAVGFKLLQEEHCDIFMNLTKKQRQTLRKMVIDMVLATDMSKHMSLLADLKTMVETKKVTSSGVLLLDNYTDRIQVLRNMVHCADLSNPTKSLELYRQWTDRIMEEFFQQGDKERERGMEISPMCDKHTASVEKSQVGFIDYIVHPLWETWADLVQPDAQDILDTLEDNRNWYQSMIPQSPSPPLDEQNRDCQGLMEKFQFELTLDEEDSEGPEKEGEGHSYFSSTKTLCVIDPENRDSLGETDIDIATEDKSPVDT

Target: recombinant human PDE4B (Homo sapiens (Human), UniProt Q07343)
Assay: In vitro inhibitory activity against PDE 4B enzyme (fluorescence polarization)
Assay type: biochemical
Settings: 1 μM cAMP
Procedure: Experimental objective: to determine the AMP/GMP expression based on fluorescence polarization, i.e., to trace binding of AMP/GMP to antibody so as to indicate enzyme activity.
Experimental buffer solution: 10 mM Tris-HCl (pH 7.5), 5 mM MgCl2, 0.01% Brij 35, 1 mM DTT, and 1% DMSO.
Enzyme: recombinant human PDE4B (Gene accession number: NM_002600; amino acid 305-end) was expressed by baculovirus in Sf9 insect cells using an N-terminal GST tag, with molecularweight being 78 kDa.
Enzyme substrate: 1 μM cAMP
Detection: Transcreener® AMP2/GMP2 antibody and AMP2/GMP2 AlexaFluor633 tracer.
• 1. The recombinant human PDE4B enzyme and enzyme substrate (1 μM cAMP) were each dissolved in newly prepared experimental buffer solution; • 2. The PDE4B enzyme buffer solution was transferred into reaction wells; • 3. The compound which was dissolved in 100% DMSO was added to the reaction wells containing PDE4B enzyme buffer solution by acoustic technique (echo 550; millilambda range) and the mixture was incubated for 10 minutes at room temperature; • 4. The enzyme substrate buffer solution was added to the above reaction wells to initiate reaction; • 5. […] The measurement range of fluorescence polarization was Ex/Em=620/688.
Data analysis: the fluorescence polarization signal was converted to nM based on AMP/GMP standard curve and the percentage enzyme activity relative to DMSO control calculated by Excel. […]

Compound CCOc1cc2c(cc1OC)-c1c/c(=N\c3c(C)cc(C)cc3C)n(CCCNc3nc[nH]n3)c(=O)n1CC2 [WX010] has an IC50 of 9.8 nM.
